# Literature values as cited in US7175829B2, “Contrast-enhanced diagnostic imaging method for monitoring interventional therapies” (Epix Pharmaceuticals, Inc., priority 1997, dated 2007).
# Tested on: alpha 1-acid glycoprotein (AAG)
# Conditions: binding to alpha 1-acid glycoprotein; cited from earlier work
smiles,measurement,value
CN(C)CCCN1c2ccccc2CCc2ccccc21 [imipramine],Ka,2.4×10^5
